The text below walks through data of article PMC6152004 (Molecules : A Journal of Synthetic Chemistry and Natural …, 2017).

By IC50 is commonly meant the midpoint of a concentration-inhibition curve.

Structures are written as SMILES.

This assay concerns the target T1, recombinant prolyl oligopeptidase (POP) (Homo sapiens, UniProt P48147).
T1 construct: purchased Sigma-Aldrich (Prague, Czech Republic)
T1 sequence (P48147 1-710): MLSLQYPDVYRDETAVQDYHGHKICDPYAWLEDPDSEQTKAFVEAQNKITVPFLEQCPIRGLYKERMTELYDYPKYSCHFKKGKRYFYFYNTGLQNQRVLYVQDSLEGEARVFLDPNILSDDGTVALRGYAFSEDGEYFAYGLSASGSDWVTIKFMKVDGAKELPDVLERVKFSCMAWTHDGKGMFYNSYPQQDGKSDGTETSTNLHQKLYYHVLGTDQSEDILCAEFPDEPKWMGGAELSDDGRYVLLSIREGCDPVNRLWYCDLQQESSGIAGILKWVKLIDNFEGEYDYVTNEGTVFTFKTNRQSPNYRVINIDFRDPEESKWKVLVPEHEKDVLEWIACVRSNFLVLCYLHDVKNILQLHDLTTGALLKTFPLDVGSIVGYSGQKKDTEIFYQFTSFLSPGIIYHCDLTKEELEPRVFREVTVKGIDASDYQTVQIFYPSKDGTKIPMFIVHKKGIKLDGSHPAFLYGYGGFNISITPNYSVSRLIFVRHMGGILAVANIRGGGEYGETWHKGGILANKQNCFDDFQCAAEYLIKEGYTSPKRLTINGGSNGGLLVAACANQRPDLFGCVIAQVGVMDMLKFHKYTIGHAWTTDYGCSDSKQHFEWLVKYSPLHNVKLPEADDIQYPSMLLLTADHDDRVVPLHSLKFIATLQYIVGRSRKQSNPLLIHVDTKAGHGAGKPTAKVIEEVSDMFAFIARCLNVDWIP
The assay can be described thus: Prolyl oligopeptidase assay, substrate Z-Gly-Pro-p-nitroanilide. Format: biochemical.

In the case of `COc1ccc2cc3[n+](cc2c1OC)CCc1cc2c(cc1-3)OCO2` [Berberine, berberine chloride, reference compound], the IC50 was found to be 142 ± 21.5 µM.
